ChEMBL document CHEMBL1129938, “Synthesis and biological evaluation of nonclassical 2,4-diamino-5-methylpyrido[2,3-d]pyrimidines with novel side chain substituents as potential inhibitors of dihydrofolate reductases” (J Med Chem, 1997)

Legend:
Dihydrofolate reductase = biological target: T1, Dihydrofolate reductase (Pneumocystis carinii, UniProt P16184)
T1 sequence (P16184 whole entry): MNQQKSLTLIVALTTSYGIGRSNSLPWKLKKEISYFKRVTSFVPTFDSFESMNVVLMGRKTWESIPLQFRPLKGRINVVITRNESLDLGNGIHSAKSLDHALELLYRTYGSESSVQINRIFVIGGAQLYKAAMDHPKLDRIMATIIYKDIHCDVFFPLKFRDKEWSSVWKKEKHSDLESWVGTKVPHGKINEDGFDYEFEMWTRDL

[1] = biological target: T2, Bifunctional dihydrofolate reductase-thymidylate synthase (Toxoplasma gondii, UniProt Q07422)
T2 sequence (Q07422 whole entry): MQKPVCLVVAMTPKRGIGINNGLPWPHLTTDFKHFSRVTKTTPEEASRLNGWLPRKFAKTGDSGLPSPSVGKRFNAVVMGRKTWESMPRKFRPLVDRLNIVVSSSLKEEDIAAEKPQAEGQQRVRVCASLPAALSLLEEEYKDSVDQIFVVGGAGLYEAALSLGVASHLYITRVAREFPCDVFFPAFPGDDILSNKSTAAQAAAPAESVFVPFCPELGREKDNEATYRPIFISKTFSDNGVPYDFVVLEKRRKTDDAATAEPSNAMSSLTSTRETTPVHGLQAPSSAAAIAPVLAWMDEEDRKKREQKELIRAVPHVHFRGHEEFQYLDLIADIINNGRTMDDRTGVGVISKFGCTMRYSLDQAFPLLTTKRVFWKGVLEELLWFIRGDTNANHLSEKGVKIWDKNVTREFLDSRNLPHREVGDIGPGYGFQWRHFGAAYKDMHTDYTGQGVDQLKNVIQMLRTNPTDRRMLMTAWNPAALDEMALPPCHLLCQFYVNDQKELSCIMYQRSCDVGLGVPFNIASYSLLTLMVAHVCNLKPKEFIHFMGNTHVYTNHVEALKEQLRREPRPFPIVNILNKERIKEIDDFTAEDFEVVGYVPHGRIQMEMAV

IC50 (Dihydrofolate reductase): 42 nM
Structure (SMILES): COc1cc(NCc2cnc3nc(N)nc(N)c3c2C)cc(OC)c1OC
IC50 [1]: 10 nM
